Results published in patent publication US10865201B2, “Bicyclic compounds useful as GPR120 modulators” (Valo Health, Inc., priority 2016, dated 2020).

Protein sequences, listed by entry. Tags and fused reporters are not part of them. Residues count along the entry.
UniProt Q5NUL3, 1-377 isoform 1: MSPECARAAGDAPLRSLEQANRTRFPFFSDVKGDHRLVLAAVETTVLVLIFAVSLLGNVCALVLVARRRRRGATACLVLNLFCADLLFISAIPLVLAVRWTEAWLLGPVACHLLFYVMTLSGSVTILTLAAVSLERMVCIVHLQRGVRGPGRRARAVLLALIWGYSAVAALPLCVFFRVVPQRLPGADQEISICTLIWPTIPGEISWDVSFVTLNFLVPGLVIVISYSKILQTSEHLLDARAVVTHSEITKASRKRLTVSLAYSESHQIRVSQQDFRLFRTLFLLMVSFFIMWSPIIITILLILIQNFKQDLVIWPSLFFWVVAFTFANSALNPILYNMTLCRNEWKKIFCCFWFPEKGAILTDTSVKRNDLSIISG
UniProt P32121, whole entry partner: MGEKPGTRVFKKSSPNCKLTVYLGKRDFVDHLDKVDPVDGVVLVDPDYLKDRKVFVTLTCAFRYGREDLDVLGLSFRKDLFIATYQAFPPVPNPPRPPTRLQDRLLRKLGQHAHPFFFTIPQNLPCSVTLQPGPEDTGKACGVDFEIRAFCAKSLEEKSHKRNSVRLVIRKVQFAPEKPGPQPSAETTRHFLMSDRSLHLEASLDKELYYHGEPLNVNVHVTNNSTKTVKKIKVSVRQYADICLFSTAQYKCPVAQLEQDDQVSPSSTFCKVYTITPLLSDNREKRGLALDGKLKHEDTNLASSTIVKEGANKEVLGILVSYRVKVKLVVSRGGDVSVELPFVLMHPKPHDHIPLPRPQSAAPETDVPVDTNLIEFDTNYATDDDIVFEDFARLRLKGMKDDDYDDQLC

Target: human GPR120 (Homo sapiens, UniProt Q5NUL3)
Experiment: Human GPR120 β-Arrestin Recruitment Assay
Settings: CHO-K1 cells co-expressing ProLink-tagged human GPR120 and β-Arrestin 2/β-gal fusion; PathHunter; 90 minutes at 37° C.
Description: This in vitro assay tests compounds' ability to activate intracellular signaling via β-Arrestin recruitment to heterologously expressed human GPR120. This functional cellular assay utilizes enzyme fragment complementation with β-galactosidase (β-gal) as a functional reporter (DiscoveRx PathHunter® β-Arrestin assay platform). The human GPR120 receptor (GenBank accession Number NM_181745) was fused in frame with the small enzyme fragment ProLink™ and co-expressed in CHO-K1 cells with a fusion protein of β-Arrestin 2 and the larger, N-terminal deletion mutant of β-gal. Activation by a GPR120 agonist stimulates binding of β-arrestin to the ProLink-tagged GPCR and forces complementation of the two enzyme fragments, resulting in the formation of an active β-gal enzyme. This interaction leads to an increase in enzyme activity that can be measured using chemiluminescent PathHunter® Detection Reagents.
One day prior to the assay, cells were seeded in a total volume of 20 μl of growth medium into white walled 384-well microplates and incubated at 37° C./5% CO2 overnight. […]
Test compounds were dissolved in 100% DMSO to a concentration of 10 mM to provide stock solutions. […] Chemiluminescence was read using an EnVision plate reader (PerkinElmer), raw data were expressed as relative light units (RLU). […]

O=S1(=O)c2ccc(Oc3cccnc3)cc2CN1Cc1ccccn1
β-Arr pEC50: <5.0
